{
  "source": "patent US8175815B2",
  "about": "“Method for assessing absorption properties of low solubility compounds” (F. Hoffmann-La Roche AG, priority 2006, dated 2012)",
  "key": {"[1]": {"conditions": "buffer + 1% w/v HP-b-CD, * = anticipated salt limit exceeded"}, "[2]": {"conditions": "buffer, * = anticipated salt limit exceeded"}},
  "note": "Like-named read-outs stand apart in the source and are kept apart here.",
  "data": [
    {"smiles": "CCCCc1oc2ccccc2c1C(=O)c1cc(I)c(OCCN(CC)CC)c(I)c1", "note": "[amiodarone]", "values": [
      {"measurement": "S(pH 7.4)", "setting": "buffer + 1% w/v HP-b-CD", "value": 14.7, "unit": "μg mL^−1"},
      {"measurement": "S(pH 5.0)", "setting": "[1]", "value": "4188* μg mL^−1"},
      {"measurement": "S(pH 6.2)", "setting": "[1]", "value": "245* μg mL^−1"},
      {"measurement": "S(pH 5.0)", "setting": "[2]", "value": 27, "unit": "μg mL^−1"},
      {"measurement": "S(pH 6.2)", "setting": "[2]", "value": 1.7, "unit": "μg mL^−1"},
      {"measurement": "S(pH 7.4)", "setting": "[2]", "value": 0.11, "unit": "μg mL^−1"}
    ]}
  ]
}
